Data reported in patent publication US20260115261A1, “COLLAGEN PEPTIDE-BASED MEDICAMENT COMPOSITIONS AND USES THEREOF” (SUSTAIN HOLDINGS, LLC, priority 2023, published 2026).

Biological target: MMP-1-digested type I collagen (plate coating)
Assay: cell-based or functional assay

longest neurite outgrowth of DRG explants on MMP1-digested collagen treated with CMP, normalized to intact collagen (% greater than intact collagen): 21
Substance: CMP 09C, (Pro-Flp-Gly)7 (peptide)
